Measured values taken from patent publication US20070009484A1, “Compositions and methods involving MDA-7 for the treatment of cancer” (Board of Regents, The University of Texas System, priority 2005, published 2007).

Tests used:
Assay type in all cases: cell-based, human
[1] = test system: β-catenin; test: Western blotting and densitometry
[2] = test system: COX-2; test: Western blotting and densitometry
[3] = test system: p-Akt; test: Western blotting and densitometry
[4] = test system: Akt; test: Western blotting and densitometry
[5] = test system: MCF-7 cells; test: Cell death by trypan blue staining; conditions: HER2 negative; 3 days; 1 μg/ml Herceptin, 2000 vp/cell
Protocol: Apoptosis was measured by TUNEL and Annexin V assays. […] Cell viability was determined by trypan-blue exclusion assay.

[6] = test system: MDA-MB453 cells; test: Cell viability by trypan blue exclusion assay; conditions: 30 ng/ml, 96 h
Protocol: (§1) MDA-MB231 and MDA-MB453 breast cancer lines were obtained from the America Type Culture Collection (ATCC, Manassas, Va.) and were maintained in DMEM (Hyclone, Inc., Logan, Utah) supplemented with 10% fetal bovine serum (Life Technologies, Inc.), 100 units/ml penicillin, 100 μg/ml streptomycin, 2 mM L-glutamine, and HEPES buffer (Life Technologies, Inc., Grand Island, N.Y.). The cells were screened routinely to verify lack of mycoplasma contamination and were used in the log phase of growth. Monoclonal anti-IL-24 antibody was prepared as described previously (Caudell et al., 2002). Rabbit phospho-Stat3 (Tyr705) antibody was purchased from Cell Signaling Technology Inc. (Beverly, Mass.), β-Actin monoclonal antibody and terminal deoxynucleotidyl transferase-mediated dUTP-biotin nick-end labeling (TUNEL) kits were purchased from Oncogene Research Products (San Diego, Calif.), and all other primary and secondary antibodies were purchased from Santa Cruz Biotechnology (Santa Cruz, Calif.). Cell viability was analyzed by trypan blue exclusion assay. Cells were trypsinized and an aliquot suspended 1:1 volume with 0.4% trypan blue. Total cell numbers and cell viability counts were assessed using a hemocytometer by light microscopy (Chada et al., 2005).
(§2) Full-length mda-7 cDNA was cloned into pCEP4 FLAG vector (Invitrogen, San Diego, Calif.) containing the CMV promoter. […]

[7] = test system: MDA-MB231 cells; test: Cell viability by trypan blue exclusion assay; conditions: 30 ng/ml, 96 h
Protocol: as §1, §2

Cc1ccc(-c2cc(C(F)(F)F)nn2-c2ccc(S(N)(=O)=O)cc2)cc1 [Celecoxib, 4-[5-(4-methylphenyl)-3-(trifluoromethyl)-1H-pyrazol-1-yl]benzenesulfonamide]
relative densitometry number for β-catenin ([1]; HER2+ (MCF7/Her18) cells): 0.78
relative densitometry number for β-catenin ([1]; HER2- (MDA-MB-436) cells): 0.82
relative densitometry number for COX-2 ([2]; HER2+ (MCF7/Her18) cells): 0.53
relative densitometry number for COX-2 ([2]; HER2- (MDA-MB-436) cells): 0.74
relative densitometry number for pAkt ([3]; HER2+ (MCF7/Her18) cells): 0.61
relative densitometry number for pAkt ([3]; HER2- (MDA-MB-436) cells): 0.67
relative densitometry number for Akt ([4]; HER2+ (MCF7/Her18) cells): 1.01
relative densitometry number for Akt ([4]; HER2- (MDA-MB-436) cells): 0.72

Herceptin: humanized antibody developed as an antagonist for the human epidermal growth factor receptor-2 (HER-2)
cell death [5]: resistant to Herceptin

B1: IL-20: IL-10 family cytokine (protein, UniProt Q9NYY1 25-176, looked up)
Interleukin-20: LKTLNLGSCVIATNLQEIRNGFSEIRGSVQAKDGNIDIRILRRTESLQDTKPANRCCLLRHLLRLYLDRVFKNYQTPDHYTLRKISSLANSFLTIKKDLRLCHAHMTCHCGEEAMKKYSQILSHFEKLEPQAAVVKALGELDILLQWMEETE
cell death (cytotoxicity) by cytokine protein [6]: none of these induced cell death above background levels
cell death (cytotoxicity) by cytokine protein [7]: none of these induced cell death above background levels
